From patent publication US7183252B2, “Indole peptidomimetics as thrombin receptor antagonists” (Ortho-McNeil Pharmaceutical, Inc., priority 1999, dated 2007)

Amino acid sequences for entries named in this document (tags omitted). Residues count along the entry.
UniProt P25116, 22-425 limits assumed: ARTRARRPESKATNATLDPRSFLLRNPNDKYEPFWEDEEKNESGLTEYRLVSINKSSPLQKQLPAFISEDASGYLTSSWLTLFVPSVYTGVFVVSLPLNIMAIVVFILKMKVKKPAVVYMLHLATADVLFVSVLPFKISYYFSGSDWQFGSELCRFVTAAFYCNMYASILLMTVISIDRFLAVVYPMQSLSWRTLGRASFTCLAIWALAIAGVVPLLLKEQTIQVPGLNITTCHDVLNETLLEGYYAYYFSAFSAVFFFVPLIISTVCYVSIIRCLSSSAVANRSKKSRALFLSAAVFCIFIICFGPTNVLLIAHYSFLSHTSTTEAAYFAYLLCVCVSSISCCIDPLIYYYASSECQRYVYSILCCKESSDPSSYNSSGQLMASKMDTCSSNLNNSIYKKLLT

Key:
gel-filtered platelets = experiment: In vitro inhibition of thrombin-induced gel-filtered platelet aggregation; settings: read-out: Thrmb IC50 (Thrombin-induced aggregation of gel-filtered platelets); human gel-filtered platelets; agonist thrombin 50 μL of 1 unit/mL
Description: In Vitro Inhibition of Thrombin-Induced Gel-Filtered Platelet Aggregation Assay
The percentage of platelet aggregation is calculated as an increase in light transmission of compound-treated platelet concentrate vs. control-treated platelet concentrate. Human blood is obtained from drug free, normal donors in tubes containing 0.13M sodium citrate. Platelet rich plasma (PRP) is collected by centrifugation of whole blood at 200×g for 10 min at 25° C. The PRP (5 mL) is gel filtered through Sepharose 2B (bed volume 50 mL), and the platelet count is adjusted to 2×10^7 platelets per sample. The following constituents are added to a siliconized cuvette: concentrated platelet filtrate and Tyrode's buffer (0.14M NaCl, 0.0027M KCl, 0.012M NaHCO3, 0.76 mM Na2HPO4, 0.0055M glucose, 2 mg/mL BSA and 5.0 mM HEPES @ pH 7.4) in an amount equal to 350 μL 50 μL of 20 mM calcium and 50 μL of the test compound. Aggregation is monitored in a BIODATA aggregometer for the 3 min following the addition of agonist (thrombin 50 μL of 1 unit/mL).
Table 7 contains IC50 values (μM) of the compounds in a thrombin receptor binding assay, and IC50 values (μM) against platelet aggregation stimulated by thrombin.

[1] = target: thrombin receptor (PAR-1) (Homo sapiens, UniProt P25116); experiment: In vitro thrombin receptor binding assay (CHRF membranes); settings: read-out: Bndg IC50 (Thrombin receptor binding), tritiated 721-40 radioligand

Compound	IC50 (gel-filtered platelets)	IC50 [1]
NCC[C@H](NC(=O)[C@H](Cc1ccc(F)c(F)c1)NC(=O)Nc1cccc2c(CN3CCCC3)cn(Cc3c(Cl)cccc3Cl)c12)C(=O)NCCN1CCCC1	23.3 µM	21.6 µM
Cc1ccccc1Cn1cc(CN2CCCC2)c2cccc(NC(=O)N[C@@H](Cc3ccc(F)c(F)c3)C(=O)N[C@@H](CCN)C(=O)NCCN3CCCC3)c21	12.8 µM	8.8 µM
